By UniProt entry, the sequences of proteins in these tests, tags left out.
UniProt P35968, whole entry: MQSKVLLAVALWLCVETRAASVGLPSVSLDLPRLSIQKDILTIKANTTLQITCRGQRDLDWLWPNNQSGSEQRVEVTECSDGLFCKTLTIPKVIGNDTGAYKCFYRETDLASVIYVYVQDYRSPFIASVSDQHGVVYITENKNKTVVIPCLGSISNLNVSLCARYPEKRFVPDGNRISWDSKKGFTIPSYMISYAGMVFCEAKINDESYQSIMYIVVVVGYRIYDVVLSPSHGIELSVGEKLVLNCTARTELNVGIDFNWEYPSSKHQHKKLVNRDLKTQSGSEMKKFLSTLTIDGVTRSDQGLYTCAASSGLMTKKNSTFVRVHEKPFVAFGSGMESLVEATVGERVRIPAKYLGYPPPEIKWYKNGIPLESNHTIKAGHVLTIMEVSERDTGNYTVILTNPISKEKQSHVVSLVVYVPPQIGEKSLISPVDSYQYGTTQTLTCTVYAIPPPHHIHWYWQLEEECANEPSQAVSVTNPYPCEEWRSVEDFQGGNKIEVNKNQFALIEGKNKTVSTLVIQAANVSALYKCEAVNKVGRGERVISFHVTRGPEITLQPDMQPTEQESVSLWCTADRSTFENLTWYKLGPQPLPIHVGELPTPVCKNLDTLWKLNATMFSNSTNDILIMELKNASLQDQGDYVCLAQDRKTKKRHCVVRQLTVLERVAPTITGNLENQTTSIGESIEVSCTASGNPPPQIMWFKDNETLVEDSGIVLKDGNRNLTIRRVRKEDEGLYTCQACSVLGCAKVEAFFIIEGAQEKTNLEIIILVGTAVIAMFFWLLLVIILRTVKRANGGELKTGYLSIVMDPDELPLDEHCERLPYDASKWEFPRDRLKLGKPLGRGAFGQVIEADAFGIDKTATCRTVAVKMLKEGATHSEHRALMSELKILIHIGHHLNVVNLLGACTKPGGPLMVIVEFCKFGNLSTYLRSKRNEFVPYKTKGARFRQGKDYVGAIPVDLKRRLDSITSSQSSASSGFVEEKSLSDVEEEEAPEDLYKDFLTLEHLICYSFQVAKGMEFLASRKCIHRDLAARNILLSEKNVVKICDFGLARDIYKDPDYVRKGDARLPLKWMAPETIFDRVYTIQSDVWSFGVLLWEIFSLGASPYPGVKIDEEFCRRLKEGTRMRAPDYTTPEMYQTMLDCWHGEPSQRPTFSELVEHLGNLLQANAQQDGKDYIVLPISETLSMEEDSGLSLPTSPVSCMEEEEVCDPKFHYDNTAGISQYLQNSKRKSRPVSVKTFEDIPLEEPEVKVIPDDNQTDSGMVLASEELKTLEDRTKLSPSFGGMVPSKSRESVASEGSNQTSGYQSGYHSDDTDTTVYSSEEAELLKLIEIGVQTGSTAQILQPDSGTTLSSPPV

According to ChEMBL document CHEMBL2069252, “Pyrazole diaminopyrimidines as dual inhibitors of KDR and Aurora B kinases” (Bioorg Med Chem Lett, 2012):

Key:
[1] = target: T1, Vascular endothelial growth factor receptor 2 (Homo sapiens, UniProt P35968); test: Inhibition of KDR by TR-FRET analysis
[2] = target: T1, Vascular endothelial growth factor receptor 2; test: Inhibition of human KDR autophosphorylation expressed in mouse NIH/3T3 cells; type: cell-based, NIH3T3
[3] = target: T1, Vascular endothelial growth factor receptor 2; test: Inhibition of KDR by HTRF analysis in presence of 1 mM ATP

Compound: Cn1cc(Nc2ncc(Br)c(N[C@H]3[C@@H](C(N)=O)[C@@H]4C=C[C@H]3C4)n2)cn1
- IC50 [1]: 6 nM
- IC50 [2]: 9 nM
- IC50 [3]: 13 nM
